Values quoted from earlier work in US20070208041A1, “Compositions for the treatment and prevention of heart disease and methods of using same” (priority 2005, published 2007).
This is a selection: effects in other tests are not listed, and their absence says nothing.

Test system: phenylephrine-constricted rat aorta
Conditions: with benomyl

| SMILES | effect of ALDH-2 inhibitor benomyl on vasodilator response |
| --- | --- |
| O=[N+]([O-])OCC(CO)(CO[N+](=O)[O-])CO[N+](=O)[O-] | reduced the vasodilator potency, but not the efficacy |
| O=[N+]([O-])OCC(CO[N+](=O)[O-])(CO[N+](=O)[O-])CO[N+](=O)[O-] | reduced the vasodilator potency, but not the efficacy |
